{"source": "patent US20100255118A1", "about": "“ORAL ZINC MEDICANTS USEFUL FOR SAFELY LOWERING FREE COPPER ABSORPTION AND FREE COPPER LEVELS” (priority 2007, published 2010)", "origin": "cited, not measured here", "details": "infants at one month of age, supplemented with 80 μg Cu/kg daily for 15 days, oral"}
{"substance": "copper sulfate", "values": [{"measurement": "Mean (+SD) copper absorption", "result": "74.8+15.2%"}]}
